From US6875741

Target: Insulin Receptor (IR) of the BIAcore experiments (UniProt P06213)
Assay: BIAcore, IR 450 nM pre-incubated with 13 µM MBP (negative control), residual binding to immobilised insulin

Result (RUs): 209 RU
Substance: MBP-lacZ fusion protein (negative control) (from UniProt P0AEX9 27-392)
